Measured values: ChEMBL document CHEMBL1137358, “Synthetic inhibitors of cytochrome P-450 2A6: inhibitory activity, difference spectra, mechanism of inhibition, and protein cocrystallization” (J Med Chem, 2006)

Target: T1, Cytochrome P450 2A6 (Homo sapiens, UniProt P11509)
T1 sequence (P11509 whole entry): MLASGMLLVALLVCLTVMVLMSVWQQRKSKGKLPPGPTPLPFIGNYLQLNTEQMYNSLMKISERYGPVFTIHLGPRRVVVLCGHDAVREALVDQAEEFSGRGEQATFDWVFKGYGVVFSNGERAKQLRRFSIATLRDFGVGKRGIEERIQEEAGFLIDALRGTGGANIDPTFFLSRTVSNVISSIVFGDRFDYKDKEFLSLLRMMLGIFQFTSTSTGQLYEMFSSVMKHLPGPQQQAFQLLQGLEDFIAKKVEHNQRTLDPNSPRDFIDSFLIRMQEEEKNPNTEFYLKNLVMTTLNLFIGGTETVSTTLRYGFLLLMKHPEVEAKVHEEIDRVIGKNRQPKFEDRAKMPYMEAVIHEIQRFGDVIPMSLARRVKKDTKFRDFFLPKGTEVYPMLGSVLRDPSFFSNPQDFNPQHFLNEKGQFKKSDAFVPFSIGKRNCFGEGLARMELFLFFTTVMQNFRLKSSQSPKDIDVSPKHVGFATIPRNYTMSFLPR
Assay: Inhibition of human CYP2A6

Ki: 14.2 µM
SMILES: CN(C)Cc1ccc(-c2cccnc2)o1
